Chains of the proteins cited; added tags and fusions are not shown. Residues count along the entry.
UniProt P43235, 115-329 limits assumed: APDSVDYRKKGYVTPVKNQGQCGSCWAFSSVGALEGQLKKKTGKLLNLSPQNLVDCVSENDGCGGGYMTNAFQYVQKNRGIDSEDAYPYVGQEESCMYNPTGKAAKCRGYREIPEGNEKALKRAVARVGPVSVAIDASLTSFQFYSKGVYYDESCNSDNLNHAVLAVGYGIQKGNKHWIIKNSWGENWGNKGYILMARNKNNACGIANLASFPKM
UniProt P25774, 115-331 limits assumed: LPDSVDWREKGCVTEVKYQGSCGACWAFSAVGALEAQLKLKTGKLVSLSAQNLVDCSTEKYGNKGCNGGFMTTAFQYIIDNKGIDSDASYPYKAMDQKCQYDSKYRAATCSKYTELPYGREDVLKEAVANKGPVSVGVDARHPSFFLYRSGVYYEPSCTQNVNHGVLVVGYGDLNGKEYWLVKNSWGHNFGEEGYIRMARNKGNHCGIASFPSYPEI
UniProt P07711, 114-333 limits assumed: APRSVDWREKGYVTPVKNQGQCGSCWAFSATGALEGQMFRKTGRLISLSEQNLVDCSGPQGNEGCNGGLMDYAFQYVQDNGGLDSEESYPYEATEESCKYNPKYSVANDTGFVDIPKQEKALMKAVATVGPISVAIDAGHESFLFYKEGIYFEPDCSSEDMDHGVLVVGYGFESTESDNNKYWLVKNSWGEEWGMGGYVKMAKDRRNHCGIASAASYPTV

According to patent US20110281285A1, “Assay for Detecting Cathepsin K Activty in Bone, Cartilage and/or Soft Tissue” (priority 2009, published 2011):

Legend:
[1] = target: T1, human cathepsin K (Homo sapiens, UniProt P43235); conditions: read-out: IC50 against human cathepsin K; cited from earlier work
[2] = target: cathepsin S (Homo sapiens, UniProt P25774); conditions: relative to human cathepsin K IC50; cited from earlier work
[3] = target: cathepsin B (Homo sapiens, UniProt P07858); conditions: relative to human cathepsin K IC50; cited from earlier work
[4] = test system: OA articular cartilage explants; assay: Explant culture of OA cartilage with and without cathepsin K inhibitor
Experimental: Wet weights of 70 to 80 mg were placed in each of the wells of the culture plates (24-well Costar™ 3548 plate; Corning Inc., Corning, N.Y.). After 48 hours of preculture at 37° C. the media were changed (day 0) and then replaced every 4 days for a total of 16 days. The cultures were established in quadruplicate with and without the cathepsin K inhibitor (L-873724)^19 at 10 nmol/L, 25 nmol/L, and 50 nmol/L in a final concentration of 0.1% dimethyl sulfoxide (DMSO). The inhibitor was added fresh to the medium at each change. The media collected from day 4 to day 16 and the recovered cartilage were stored at −20° C. until analysis after digestion with α-chymotrypsin. Complete digestion of the cartilage was ensured by further adding 1 ml/tube of 1 mg/ml proteinase K (Sigma) in 50 mmol/L Tris-HCl containing the proteinase inhibitors.^2 After overnight incubation at 56° C. no residue remained and the enzyme was inactivated by boiling the samples for 10 minutes. […] The concentration of the neoepitope released from the cartilage was calculated by summation of the concentrations found both in the media and α-chymotrypsin digests and expressed as pmol of C2K/mg wet wt of cartilage as above. […] GAG release into the media was expressed as a percentage of the total GAG that represents the summation of the GAG concentration present in the media and the one from the two cartilage extracts.

[5] = target: cathepsin L (Homo sapiens, UniProt P07711); conditions: relative to human cathepsin K IC50; cited from earlier work
[6] = test system: cartilage culture; assay: Toxicity analysis: [3H] proline incorporation in cartilage culture; conditions: range of concentrations incl. 10, 25, 50 nmol/L (data not shown)
Experimental: The effect of L-873724 on the synthesis of Col II and other matrix proteins was assessed by measuring the incorporation of [^3H] proline in cartilage culture. The tissue was maintained for 7 days as described above, in the presence and absence of the inhibitor at 10 nmol/L, 25 nmol/L, and 50 nmol/L and media were changed at days 4 and 7. On day 7, medium was supplemented with 25 μCi/ml of tritiated proline (Amersham, Buckinghamshire, UK) and culture continued for 48 hours. After culture, the cartilage was harvested and washed three times for 10 to 15 minutes in PBS to remove free label. The cartilage was digested with proteinase K as described above and radioactivity determined by scintillation counting.

[7] = target: T1, human cathepsin K; assay: Digestion of human Col II with cathepsin K, C2K neoepitope by inhibition ELISA; conditions: pH 5.5, inhibitor added at start of incubation, each subsequent time point (data not shown)
Experimental: Immulon™ 2 plates (VWR International, Montreal, Canada) were coated with the peptide-ovalbumin conjugate (prepared as described above for the hemocyanin conjugate) diluted in phosphate-buffered saline (PBS), pH 7.2, at 3 ng/well (50 μl/well), the optimum concentration as determined by checkerboard analyses. After overnight incubation at 4° C., the plate was washed three times with PBS-0.1% Tween™ 20 and blocked with 100 μl of PBS-1% bovine serum albumin (BSA), at room temperature for 30 minutes. Serial dilutions of the standard peptide containing the epitope that had been used for immunization were prepared and added at 50 μl/well in triplicate to round bottom polypropylene plates used as preincubation plates; the antiserum was diluted 1:12,000 (optimum dilution as determined by checkerboard analyses) in PBS-1% BSA, 0.1% Tween 20, pH 7.2, and added to the plates (50 μl/well). In the nonspecific binding wells 50 μl of PBS-1% BSA and 50 μl of PBS-1% BSA, 0.1% Tween 20 were added; the maximum binding wells contained 50 μl of the diluted antiserum and 50 μl of PBS-1% BSA. After 1 hour incubation at 37° C., 50 μl of each preincubated well was transferred to the Immulon 2 flat-bottom, 96-well microtiter plates. The plates were incubated at 4° C. for 30 minutes and then washed three times with PBS-0.1% Tween 20. […] The optical density (405 nm) was read after 1 hour incubation. […]

## CC(C)C[C@H](N[C@@H](c1ccc(-c2ccc(S(C)(=O)=O)cc2)cc1)C(F)(F)F)C(=O)NCC#N
[1]
  IC50: 0.2 nM
[2]
  fold higher IC50 value versus cathepsin S: 890 fold
[3]
  fold higher IC50 value versus cathepsin B: 890 fold
[4]; 10, 25, 50 nmol/L, 16 days culture, eight OA patients (FIG. 8)
  generation of the C2K neoepitope (media plus cartilage): reduced the generation of the neoepitope in four of eight OA patients
[4]; OA explant culture (data not shown)
  proteoglycan degradation measured as glycosaminoglycan release: no effect
[5]
  fold higher IC50 value versus cathepsin L: 890 fold
[6]
  toxicity: incorporation of tritiated proline into newly synthesized proteins: nontoxic
[7]
  release of the C2K neoepitope with inhibitor in the digestion buffer: negligible
